# pIC50: −log10 of the molar value.
# Chains of the proteins cited; added tags and fusions are not shown.
# UniProt Q9NWZ3, whole entry, species assumed: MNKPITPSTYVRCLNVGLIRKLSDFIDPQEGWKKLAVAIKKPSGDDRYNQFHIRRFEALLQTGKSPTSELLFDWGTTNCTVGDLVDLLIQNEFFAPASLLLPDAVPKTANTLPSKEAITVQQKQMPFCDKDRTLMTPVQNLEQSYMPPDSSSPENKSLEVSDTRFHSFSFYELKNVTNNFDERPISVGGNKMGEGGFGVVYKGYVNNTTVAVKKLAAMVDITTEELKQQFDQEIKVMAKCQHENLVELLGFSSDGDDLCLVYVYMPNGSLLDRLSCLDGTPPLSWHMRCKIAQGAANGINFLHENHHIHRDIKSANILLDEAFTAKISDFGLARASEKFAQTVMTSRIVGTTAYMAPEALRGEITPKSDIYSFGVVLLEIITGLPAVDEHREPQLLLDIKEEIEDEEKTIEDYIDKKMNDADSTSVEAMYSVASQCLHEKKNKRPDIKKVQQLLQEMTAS
# Biological target: IRAK4 (Homo sapiens (Human), UniProt Q9NWZ3)
# Assay: IRAK4 Inhibition Assay
# Type: biochemical
# Conditions: ATP 500 μM; IRAK4 0.6 nM; 60 min at room temperature
# Experimental: IRAK4 Inhibition Assay The assays were performed in U-bottom 384-well plates. […] The reaction was initiated by the combination of IRAK4 with substrates and test compounds. The reaction mixture was incubated at room temperature for 60 min. and terminated by adding 45 μL of 35 mM EDTA to each sample.
row,SMILES,pIC50
1,CC(C)(O)[C@H](F)CNC(=O)c1cnc(Nc2ncncc2Cl)cc1NC1CCOCC1 [Example 95],8.15
2,CC(F)[C@@H](C)Nc1cc(Nc2ncc(C#N)cc2Cl)ncc1C(=O)NC[C@@H](F)C(C)(C)O (some centres unmarked) [Example 159],8.24
3,CC(C)(O)[C@H](F)CNC(=O)c1cnc(Nc2ncc(C#N)cc2Cl)cc1Nc1ccc(-n2cccn2)cc1 [Example 168],8.21
4,COC(C)(C)[C@H](F)CNC(=O)c1cnc(Nc2ncc(C#N)cc2F)cc1NC(C)C [Example 36],8.48
5,CC(C)Nc1cc(Nc2ncncc2Cl)ncc1C(=O)NC[C@@H](F)C(C)(C)O [Example 52],8.16
